The target in experiment [1] is T1, SMYD2 (Homo sapiens (Human), UniProt Q9NRG4). Description: Scintillation Proximity Assay (SPA) for detection of SMYD2 enzymatic inhibition. In kind it is biochemical. To be noted: methylation of biotinylated p53 Peptide, 3H-SAM, full length SMYD2; read-out: IC50 [mol/l] (SPA Assay). On the procedure:
1.1 Scintillation Proximity Assay (SPA) for Detection of SMYD2 Enzymatic Inhibition
The SMYD2 full length enzyme was produced in-house by expression (with an N-terminal 6×His tag) in E. coli and purification by affinity chromatography on a Ni-NTA Sepharose column followed by a size exclusion chromatography step on a Superdex 200 16/60 column (GE Healthcare).
To this end, 100-fold concentrated compound solutions (in DMSO) were previously prepared by serial dilution (1:3.4) of 2 mM stocks in a clear low volume 384-well source microtiter plate (Greiner Bio-One), from which 50 nl of compound solutions were transferred into a white low volume test microtiter plate from the same supplier. […] The samples were then incubated for 15 min at 22° C. to allow pre-equilibration of the putative enzyme-inhibitor complexes before the start of the methylation reaction, which was initiated by the addition of 2.5 μl 2-fold concentrated solution (in assay buffer) of titrated S-Adenosyl-L-Methionine (3H-SAM, Perkin Elmer, final concentration: 60 nM) and p53 Peptide substrate (final concentration: 1.0 μM). The resulting mixture (5 μl final volume) was shortly centrifuged (2 min., 1500 rpm) and incubated at 22° C. during 30 min. Thereupon the reaction was stopped by adding 3 μl of Streptavidin PS SPA imaging beads (Perkin Elmer, final concentration of 3.12 μg/μl) and “cold” SAM (AK Scientific, 25 μM final concentration) for non-specific binding reduction. Plates containing the stopped reaction were sealed with transparent adhesive foil (Perkin Elmer), centrifuged (2 min., 1500 rpm), and further incubated for—at least—1 h at RT (or overnight at 4° C.) in order to allow the SPA signals to develop. […] IC50 values were calculated by fitting the normalized inhibition data to a 4-parameter logistic equation using the “Screener” analysis software from Genedata.
(In general: In a scintillation proximity assay essentially only radioactivity close to the scintillant gives light.)

Amino acid sequences for entries named in this document (tags omitted). A change or cut given only in a name is not applied to a line headed by its entry.
UniProt Q9NRG4: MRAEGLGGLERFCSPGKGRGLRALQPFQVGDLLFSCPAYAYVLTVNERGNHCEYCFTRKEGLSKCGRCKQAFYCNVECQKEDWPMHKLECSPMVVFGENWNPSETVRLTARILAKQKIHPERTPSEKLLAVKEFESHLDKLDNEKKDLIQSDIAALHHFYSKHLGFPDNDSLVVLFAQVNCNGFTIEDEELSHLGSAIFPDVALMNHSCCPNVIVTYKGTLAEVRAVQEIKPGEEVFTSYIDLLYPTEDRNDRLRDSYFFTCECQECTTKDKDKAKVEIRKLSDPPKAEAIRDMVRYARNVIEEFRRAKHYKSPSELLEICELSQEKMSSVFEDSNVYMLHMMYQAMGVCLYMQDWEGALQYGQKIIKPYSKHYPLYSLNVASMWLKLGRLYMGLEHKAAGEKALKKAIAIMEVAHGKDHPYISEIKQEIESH

In experiment [2] the target is T1, SMYD2. Briefly: In Cell Western (ICW) cell-based assay for detection of SMYD2 methylation activity. As to conditions: SMYD2 overexpressing KYSE-150 cells, 72 h treatment, p53K370me1 signal; read-out: IC50 [mol/l] (ICW assay).

Molecules are shown by their SMILES. Several values for one entry are separate records, joined by “and”; a condition that tells them apart may be missing. Equal entries are not always repeated.

For the molecule `CCN(C(=O)CO)C1CN(/C(=N\C#N)Nc2cccc(OC(F)(F)F)c2)N=C1c1ccc(Cl)c(Cl)c1` (racemic) [Example 13, Rac-N-[1-{N′-cyano-N-[3-(trifluoromethoxy)phenyl]carbamimidoyl}-3-(3,4-dichlorophenyl)-4,5-dihydro-1H-pyrazol-4-yl]-N-ethyl-2-hydroxyacetamide], the IC50 in experiment [1] was 86.7 nM and 254 nM; in experiment [2], 196 nM.

As to `CCN(C(=O)CO)C1CN(/C(=N\C#N)Nc2cccc(OC(F)F)c2)N=C1c1ccc(Cl)c(Cl)c1` (single isomer, unassigned) [Example 4.2, N-[1-{N′-cyano-N-[3-(difluoromethoxy)phenyl]carbamimidoyl}-3-(3,4-dichlorophenyl)-4,5-dihydro-1H-pyrazol-4-yl]-N-ethyl-2-hydroxyacetamide], the IC50 in experiment [1] was found to be 1320 nM; in experiment [2] it was 1390 nM.

Source of the values: US10023539B2, “Aryl-cyanoguanidine compounds” (Bayer Pharma Aktiengesellschaft, priority 2014, dated 2018).
